The conditions of series [1]: Caco-2 homogenate; for Percent ketoprofen released / Percent niacin released: 4 hr, 37°C.
The subject of the next series is ASBT-MDCK monolayers. The settings on record: for passive permeability / Pp ×10^6(cm/s): absence of sodium; for passive permeability: ASBT-MDCK; for Pp ×10^6(cm/s): passive permeability, mean (±SEM) of three measurements; for passive permeability share of total prodrug uptake: when [S] = ½ Kt.
The conditions of series [2]: for Percent ketoprofen released: liver S9, 4 hr, 37°C.

Like-named read-outs stand apart in the source and are kept apart here.

Regarding CDCA-lysine-ketoprofen, the Percent ketoprofen released in series [1] (1 μM CDCA-lysine-ketoprofen) stood at 5.94%; in series [1] (5 μM CDCA-lysine-ketoprofen) it was 3.73%; in series [2] (1 μM CDCA-lysine-ketoprofen), 24.5%; in series [2] (1 μM CDCA-lysine-ketoprofen, listed as ketoprofen prodrug) it was 24.5%; in series [2] (5 μM CDCA-lysine-ketoprofen) it was 12.2%; in series [2] (5 μM CDCA-lysine-ketoprofen, listed as ketoprofen prodrug), 12.2%. In addition, the passive permeability in the series on ASBT-MDCK monolayers is 6.38 ×10⁻⁶ cm/s. The “passive permeability relative to CDCA-lysine-niacin” value in the series on ASBT-MDCK monolayers (higher) is 20 fold. The “Pp ×10^6(cm/s)” value in the series on ASBT-MDCK monolayers is reported as 6.38(±0.44) ×10^6(cm/s). The “passive permeability share of total prodrug uptake” value in the series with ASBT-MDCK monolayers came to 44.1%.

For CDCA-lysine-niacin, the Percent niacin released in series [1] (1 μM CDCA-lysine-niacin) is listed as 69.4%; in series [1] (1 μM CDCA-lysine-niacin, listed as niacin prodrug) it was 69.4%; in series [1] (5 μM CDCA-lysine-niacin) it was 26.9%; in series [1] (5 μM CDCA-lysine-niacin, listed as niacin prodrug) it was 26.9%. Further, the prodrug degradation in series [1] (niacin prodrug, after 4 hr) was found to be 41.7%. In the series with ASBT-MDCK monolayers, the passive permeability turned out to be 0.367 ×10⁻⁶ cm/s. Moreover, in the series on ASBT-MDCK monolayers, the “Pp ×10^6(cm/s)” value is listed as 0.367(±0.023) ×10^6(cm/s). In the series on ASBT-MDCK monolayers, the “passive permeability share of total prodrug uptake” value amounted to 10.3%. In series [2] (1 μM niacin prodrug, liver homogenate, after 4 hr), the prodrug degraded result is reported as “About 30.3%”.

Source of the values: article PMC2912288 (International journal of pharmaceutics, 2010).
